Experiment: Antioxidant activity assessed as trolox equivalent of ABTS radical scavenging activity measured after 1 hr by UV-vis spectrophotometric method
Format: functional
Summary of the method: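 ABTS cation-radical decolorization was read spectrophotometrically as the fall in absorbance after 1 h. Trolox was the reference. TEAC was taken as the ratio of concentration-response slopes, test/Trolox, and IC50 was also derived. Data are mean ± SEM, n = 3.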

SMILES: O=C1O[C@H]([C@@H](O)CO)C(O)=C1O [ASCORBIC ACID]
- Activity: 0.98 equiv
